Measurements published in patent publication US4368194A, “Pharmacologically active amine boranes” (The United States of America as represented by the …, priority 1981, dated 1983).

Test: in vivo
Settings: mouse

With `O=C(O)[BH2-][n+]1ccccc1` [XVI, Pyridine-carboxyborane] the LD50 was > 200 mg/kg.
